In patent US20130071357A1, “IDENTIFICATION, PROLIFERATION IN SITU, HARVESTING, SEPARATION, AND TRANSPLANTATION OF ADULT-DERIVED REGENERATIVE PLURIPOTENT TRANSITIONAL BLASTOMERE-LIKE STEM CELLS AND METHODS OF TREATMENT THEREOF” (HEYGEN, LLC, priority 2011, published 2013):

Legend:
[1] = system: adult totipotent blastomeric-like stem cells; assay: induction of blastomeric-like stem cells in culture; type: cell-based, rat; settings: BLSCs
Source text: Adult blastomeric-like stem cells display a normal karyotype (FIG. 11). […] 1961; Rohme 1981; Young and Black, 2005a]. […] The smaller-sized adult totipotent blastomeric-like stem cells, i.e., from 0.2 microns to less than 1 micron in size can also be grown in suspension cultures in vitro (Table 1). Adult totipotent blastomeric-like stem cells are responsive to any lineage-induction agent across all three primary germ layer lineages. […] As long as the adult totipotent blastomeric-like stem cell remains lineage-uncommitted, it is unresponsive to progression agents like insulin, IGF-I or IGF-II that accelerate the time frame of expression for tissue specific phenotypic differentiation markers (FIG. 7; Table 1) [Young and Black, 2005a].
FIG. 7. Blastomeric-like stem cells (BLSCs) harvested from male Sprague-Dawley out bred rat 0001 and propagated from a single cell derived by serial dilution clonogenic analysis, then genomically labeled with LacZ to synthesize the beta-galactosidase gene product. Clone designated as Scl-44beta. […] A: Bright field microscopy, positive staining for cell-surface marker CEA-CAM-1. B-L is phase contrast microscopy to show unstained cells in field of view. […]

[2] = system: adult pluripotent epiblast-like stem cells; assay: induction of epiblast-like stem cells in culture; type: cell-based, rat; settings: ELSCs
Source text: Adult pluripotent epiblast-like stem cells (ELSCs) are 6-8 microns in size as assessed by flow cytometry of living cells (Table 1, FIGS. 5,13) [Young et al., 1999]. ELSCs have the potential to form all the downstream somatic cells of the body (FIGS. 14,15) [Young et al., 2004a,b]. ELSCs will not form totipotent blastomeric-like stem cells, gametes (ovum and sperm) or their precursor cells (oogonia or spermatogonia) [Young and Black, 2005a]. […] Adult pluripotent epiblast-like stem cells have a unique pattern of cell surface markers (Table 1) [Young et al., 1999] and stain for stage-specific embryonic antigen (SSEA) (FIG. 8). […] Adult pluripotent epiblast-like stem cells are responsive to any lineage-induction agent across all three primary germ layer lineages (FIGS. 14,15; Table 1) [Young et al., 2004a,b; Young and Black, 2005]. […] As long as the adult pluripotent epiblast-like stem cell remains lineage-uncommitted, it is unresponsive to progression agents like insulin, IGF-I or IGF-II that accelerate the time frame of expression of tissue specific phenotypic differentiation markers (Table 1). […]

B1: bone morphogenetic protein-2: lineage-induction agent (protein, UniProt P12643 283-396, looked up)
Bone morphogenetic protein 2: QAKHKQRKRLKSSCKRHPLYVDFSDVGWNDWIVAPPGYHAFYCHGECPFPLADHLNSTNHAIVQTLVNSVNSKIPKACCVPTELSAISMLYLDENEKVVLKNYQDMVVEGCGCR
response to lineage-induction agent [1]: forming cells (myotubes and bone, respectively) belonging to the mesodermal lineage
response to lineage-induction agent [2]: forming cells (myoblasts and osteocytes respectively) belonging to the mesodermal lineage
